Drawing on patent US6630472B1, “Compounds, pharmaceutical compositions, and methods for stimulating neuronal growth and elongation” (priority 1998, dated 2003), this text covers Ki for 24 compounds.

Amino acid sequences for entries named in this document (tags omitted).
UniProt P62942, whole entry: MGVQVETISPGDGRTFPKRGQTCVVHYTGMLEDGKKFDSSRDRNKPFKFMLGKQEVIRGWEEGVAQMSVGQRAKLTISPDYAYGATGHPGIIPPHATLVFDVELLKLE

The experiment addresses FKBP12 (Homo sapiens, UniProt P62942). The experiment is described as follows: rotamase inhibition assay (N-succinyl-Ala-Ala-Pro-Phe-p-nitroanilide, chymotrypsin-coupled). To be noted: read-out: Rotamase Ki(app); apparent Ki; NI = no inhibition at the concentrations tested.

Molecules are shown by their SMILES.

In the case of `CCOC(=O)CN1C(=O)C2CCCC(C1C(OC)OC)N2C(=O)C(=O)c1cc(OC)c(OC)c(OC)c1` (stereo not drawn), the Ki came to 170 nM.
Regarding `COc1ccc(CN2CC3C4CCCC(C(=O)N3CC2=O)N4C(=O)C(=O)c2cc(OC)c(OC)c(OC)c2)cc1` (stereo not drawn), the Ki turned out to be 220 nM.
Turning to `CCCNC(=O)CN1C(=O)C2CCCC(C1C(OC)OC)N2C(=O)C(=O)C(C)(C)CC` (stereo not drawn), the Ki is 31400 nM.
`CCC(C)(C)C(=O)C(=O)N1C2CCCC1C(=O)N(CCCCc1ccccc1)CC2` (stereo not drawn): the Ki turned out to be 5000 nM.
For the compound `COc1cc(C(=O)C(=O)N2C3CCCC2C2CN(CC(OC)OC)C(=O)CN2C3=O)cc(OC)c1OC` (stereo not drawn), the Ki was 350 nM.
As to `COc1cc(C(=O)C(=O)N2C3CCCC2C2=Cc4cc(C(F)(F)F)cc(C(F)(F)F)c4CN2C3=O)cc(OC)c1OC` (stereo not drawn), the Ki is 370 nM.
On to `CC(=O)OCC1(C(=O)C(=O)N2C3CCCC2C2=Cc4cc(C(F)(F)F)cc(C(F)(F)F)c4CN2C3=O)CCCC1` (stereo not drawn), for which the Ki is more than 50000 nM.
For `COc1cc(C(=O)C(=O)N2C3CCCC2C(=O)N(CCCCc2ccccc2)CC3)cc(OC)c1OC` (stereo not drawn) the value was 239 nM.
With `COc1cc(C(=O)C(=O)N2C3CCCC2C(=O)NCC3)cc(OC)c1OC` (stereo not drawn), the Ki was 3300 nM.
For `CCC(C)(C)C(=O)C(=O)N1C2CCCC1C1c3ccc(OC)cc3CCN1C2=O` (stereo not drawn), the Ki turned out to be 620 nM.
Regarding `CCC(C)(C)C(=O)C(=O)N1C2CCCC1C1CN(Cc3ccc(OC)cc3)C(=O)CN1C2=O` (stereo not drawn), the Ki is more than 50000 nM.
For `CCCN1C=C2C3CCCC(C(=O)N2CC1=O)N3C(=O)C(=O)C(C)(C)CC` (stereo not drawn) the value was 1400 nM; for `COc1ccc2c(c1)CCN1C(=O)C3CCCC(C21)N3C(=O)C(=O)c1cc(OC)c(OC)c(OC)c1` (stereo not drawn), 175 nM.
As to `CCC(C)(C)C(=O)C(=O)N1C2CCCC1C1CN(CC(OC)OC)C(=O)CN1C2=O` (stereo not drawn), the Ki is more than 50000 nM.
As to `CCC(C)(C)C(=O)C(=O)N1C2CCCC1C1c3ccccc3CCN1C2=O` (stereo not drawn), the Ki came to 3200 nM.
For `CCC(C)(C)C(=O)C(=O)N1C2C=CN(CCCCc3ccccc3)C(=O)C1CCC2` (stereo not drawn), the Ki was determined as 381 nM.
For `CCC(C)(C)C(=O)C(=O)N1C2CCCC1C(=O)N(CCOCc1ccccc1)C2` (stereo not drawn) the value was 2300 nM; for `CCC(C)(C)C(=O)C(=O)N1C2CCCC1C1c3ccccc3CCCN1C2=O` (stereo not drawn), 16000 nM.
Regarding `CCCN1C=C2C3CCCC(C(=O)N2CC1=O)N3C(=O)C(=O)c1cc(OC)c(OC)c(OC)c1` (stereo not drawn), the Ki is 130 nM.
For `CCCCCC1C(=O)N(C2CCCC2)C=C2C3CCCC(C(=O)N21)N3C(=O)C(=O)c1cc(OC)c(OC)c(OC)c1` (single isomer, unassigned) [158], the Ki was determined as 776 nM.
In the case of `COc1ccc2c(c1)C1C3CCCC(C(=O)N1CC2)N3C(=O)C(=O)c1cc(OC)c(OC)c(OC)c1` (stereo not drawn), the Ki worked out at 80 nM.
Consider `CCC(C)(C)C(=O)C(=O)N1C2CCCC1C1c3cc(OC)ccc3CCN1C2=O` (stereo not drawn), for which the Ki is 1600 nM.
In the case of `COc1cc(C(=O)C(=O)N2C3CCCC2C2c4ccccc4CCCN2C3=O)cc(OC)c1OC` (stereo not drawn), the Ki was 880 nM.
Regarding `CCCCCC1C(=O)N(C2CCCC2)C=C2C3CCCC(C(=O)N21)N3C(=O)C(=O)c1cc(OC)c(OC)c(OC)c1` (single isomer, unassigned) [157], the Ki was determined as 1600 nM.
